In this assay the target is Urokinase-type plasminogen activator [179-424,C299A,N323Q] (Human, UniProt P00749, C299A/N323Q). Put plainly: Photometric_Method1.

As usually defined, the Ki is a measure of affinity in units of concentration, obtained from inhibition or displacement. Read a high Ki as weaker binding.

Consider `[H]/N=C(\N)c1ccc2cc(C(=O)Nc3ccc(CN)cc3)ccc2c1`, for which the Ki was determined as 0.04 µM.

Molecule `[H]/N=C(\N)c1ccc2ccc(OC)c(OCCCBr)c2c1` [uPa_3] came in with a Ki of 6.39 µM. This Ki lies about 160-fold higher than the previous one.
